Our source for the IC50 values is ChEMBL document CHEMBL4020701, “A strategy for dual inhibition of the proteasome and fatty acid synthase with belactosin C-orlistat hybrids” (Bioorg Med Chem, 2017).

Chains of the proteins cited; added tags and fusions are not shown. Lines headed by an entry give the natural chain unless they say otherwise; changes in a name come on top.
UniProt P28074: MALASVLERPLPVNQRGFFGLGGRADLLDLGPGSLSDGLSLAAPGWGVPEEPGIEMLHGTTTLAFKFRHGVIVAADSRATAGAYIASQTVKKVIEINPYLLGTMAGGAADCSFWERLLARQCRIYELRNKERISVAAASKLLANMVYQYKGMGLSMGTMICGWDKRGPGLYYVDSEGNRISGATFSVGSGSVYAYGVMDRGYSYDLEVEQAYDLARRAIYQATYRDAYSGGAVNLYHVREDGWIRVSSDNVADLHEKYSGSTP

pIC50: −log10 of the molar value.

This assay addresses Proteasome Macropain subunit MB1 (Homo sapiens, UniProt P28074). The assay is described as follows: Inhibition of chymotrypsin-like activity of 20S proteasome in human red blood cells pretreated for 20 mins followed by Suc-Leu-Leu-Val-Tyr-AMC substrate addition by fluorescence assay. Type of assay: cell-based. The gist of the method:
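20S proteasome (50 ng) from human erythrocytes, preincubated 20 min at 37 °C in 20 mM Tris pH 7.5 with inhibitor series. AMC substrate then added: 10 µM Suc-LLVY for chymotrypsin-like, 20 µM Boc-LRR for trypsin-like, 20 µM Z-LLE for caspase-like. Hydrolysis followed at 360/460 nm for 600 s; the linear rate was fitted to a four-parameter curve for IC50. Triplicate.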
With `CCCCCC[C@]1(C)C(=O)O[C@H]1C(=O)NCCCC[C@H](NC(=O)[C@H](C)NC(=O)OCc1ccccc1)C(=O)OCc1ccccc1`, the pIC50 was 5.61.
With `CCCCCC[C@@]1(C)C(=O)O[C@H]1C(=O)NCCCC[C@H](NC(=O)[C@H](C)NC(=O)OCc1ccccc1)C(=O)OCc1ccccc1`, the negative logarithm of the IC50 (pIC50) was 5.47.
As to `CCCCCC[C@@]1(C)C(=O)O[C@@H]1C(=O)NCCCC[C@H](NC(=O)[C@H](C)NC(=O)OCc1ccccc1)C(=O)OCc1ccccc1`, the pIC50 is 5.66.
For `CCCCCC[C@@H]1C(=O)O[C@H]1C(=O)NCCCC[C@H](NC(=O)[C@H](C)NC(=O)c1ccc(Br)cc1)C(=O)OCc1ccccc1`, the pIC50 was 6.29.
